The results in this text go back to patent US20100291230A1 (priority 2006, published 2010).

This assay concerns snap dragon (Antirrhinum majus). The settings on record: flower stems.

As for `CBr` [Methyl Bromide], the “yield increase (%), disinfestation” value (pre-plant soil disinfestation alone, compared to non-disinfested control) turned out to be 24.0%. The “yield increase (%), disinfestation + urea-phosphite” value (pre-plant soil disinfestation followed by post-plant UP 0.1%) came out at 52.0%.
